This is an account of results in US20070031511A1, “Method of treatment” (priority 2003, published 2007).

This series in a line: Solubility of peptides in NMR sample preparation. The class given is physicochemical. Particulars: NMR sample conditions, pH 5.3. On the procedure:
For the subsequent experiments, samples were prepared for NMR spectroscopy by dissolving 2.5 mg of peptide in 0.6 ml of 10% DMSO/10% ^2H2O/80% H2O at 278 K. The pH was adjusted with small amounts of 1M NaO^2H or ^2HCl to pH 5.3. ^1H chemical shifts were referenced to 2,2-dimethyl-2-silapenthane-5-sulfonate at 0 ppm via the chemical shift of the H2O resonance or an impurity at 0.15 ppm. NMR spectra were recorded on Bruker DRX-600 and AMX-500 instruments, as described previously (Barnham et al, 1999).
The peptides LE5AYG, LE5A, E5AY and E5A (approximately 2 mM) were dissolved in H2O with 5 or 10% ^2H2O. […] Sequence-specific ^1H NMR resonance assignments were made from two-dimensional nuclear Overhauser enhancement spectroscopy (NOESY) and total correlation spectroscopy (TOCSY).

Take `CC(C)C[C@H](N)C(=O)N[C@@H](CCC(=O)O)C(=O)N[C@@H](CCC(=O)O)C(=O)N[C@@H](CCC(=O)O)C(=O)N[C@@H](CCC(=O)O)C(=O)N[C@@H](CCC(=O)O)C(=O)N[C@@H](C)C(=O)N[C@@H](Cc1ccc(O)cc1)C(=O)O` [LE5AY]: the Solubility result is recorded as “slightly insoluble at 2 mM”.
